Data as given in publication PMC10223265 (Viruses, 2023).

Columns and labels:
[1] = target: T1, N36 (gp41 NHR-derived peptide) (Human immunodeficiency virus type 1 group M subtype B, UniProt P04578); experiment: Native PAGE (N-PAGE) binding to N36; design: species or system HIV-1; conditions: equimolar mixtures, 100 μM each peptide
T1 construct: a synthetic peptide derived from the NHR segment of HIV-1 gp41, namely, N36

[2] = test system: HIV-1 J32228M4 (subtype D, R5); assay type: cell-based
[3] = target: T1, N36 (gp41 NHR-derived peptide); experiment: CD spectroscopy and thermal denaturation of equimolar mixtures with N36; assay type: binding, HIV-1; conditions: 10 μM each peptide, in the presence of 2 M Gdn·HCl
[4] = test system: HIV-1 strain 89BZ167 (subtype B, X4); assay type: cell-based; conditions: primary isolate 89BZ167, subtype B, CEMx174 5.25 M7 cells
[5] = test system: HIV-1 91US_4 (subtype B, R5); assay type: cell-based; conditions: 91US 4 (subtype B, R5)
[6] = test system: HIV-1 92UG029 (subtype A, X4); assay type: cell-based

SMILES	binding to N36 by N-PAGE [1]	EC50 [2] [nM]	thermal unfolding transition (Tm) of complex with N36 [3] [°C]	EC50 [4] [nM]	EC50 [5] [nM]	EC50 [6] [nM]
CC[C@H](C)[C@H](NC(=O)[C@H](CO)NC(=O)[C@H](CCC(=O)O)NC(=O)[C@H](CCC(=O)O)NC(=O)[C@H](CCC(N)=O)NC(=O)[C@H](CCCCN)NC(=O)[C@H](CCCCN)NC(=O)[C@@H](NC(=O)[C@H](CCC(N)=O)NC(=O)[C@H](CCC(=O)O)NC(=O)[C@H](CCC(=O)O)NC(=O)[C@@H](NC(=O)[C@H](CCCCN)NC(=O)[C@H](CCCCN)NC(=O)[C@@H](NC(=O)[C@H](CC(C)C)NC(=O)[C@H](CCC(=O)O)NC(=O)[C@H](CCC(=O)O)NC(=O)[C@H](CO)NC(=O)[C@H](CCCCN)NC(=O)[C@H](CCCCN)NC(=O)[C@@H](NC(=O)[C@H](CC(C)C)NC(=O)[C@H](CCC(=O)O)NC(=O)[C@H](CCC(=O)O)NC(=O)[C@@H](NC(=O)[C@H](CCCCN)NC(=O)[C@H](CCCCN)NC(=O)[C@H](CC(=O)O)NC(=O)[C@H](Cc1c[nH]c2ccccc12)NC(=O)[C@H](CCC(=O)O)NC(=O)[C@H](CCC(=O)O)NC(=O)[C@H](Cc1c[nH]c2ccccc12)NC(=O)[C@@H](NC(=O)[C@H](CCSC)NC(C)=O)[C@@H](C)O)[C@@H](C)CC)[C@@H](C)CC)[C@@H](C)CC)[C@@H](C)CC)[C@@H](C)CC)C(=O)N[C@@H](CCCCN)C(=O)N[C@@H](CCCCN)C(=O)N[C@@H](CCCCNC(=O)CCOCCOCCOCCOCCNC(=O)c1ccc(CC2CCN(CCCN(C(=O)C3CCN(C(C)=O)CC3)c3ccc(C)c(Cl)c3)CC2)cc1)C(N)=O [AP3P4E]	bound to N36					
CC[C@H](C)[C@H](NC(=O)[C@H](CO)NC(=O)[C@H](CCC(=O)O)NC(=O)[C@H](CCC(=O)O)NC(=O)[C@H](CCC(N)=O)NC(=O)[C@H](CCCCN)NC(=O)[C@H](CCCCN)NC(=O)[C@@H](NC(=O)[C@H](CCC(N)=O)NC(=O)[C@H](CCC(=O)O)NC(=O)[C@H](CCC(=O)O)NC(=O)[C@@H](NC(=O)[C@H](CCCCN)NC(=O)[C@H](CCCCN)NC(=O)[C@@H](NC(=O)[C@H](CC(C)C)NC(=O)[C@H](CCC(=O)O)NC(=O)[C@H](CCC(=O)O)NC(=O)[C@H](CO)NC(=O)[C@H](CCCCN)NC(=O)[C@H](CCCCN)NC(=O)[C@@H](NC(=O)[C@H](CC(C)C)NC(=O)[C@H](CCC(=O)O)NC(=O)[C@H](CCC(=O)O)NC(=O)[C@@H](NC(=O)[C@H](CCCCN)NC(=O)[C@H](CCCCN)NC(=O)[C@H](CC(=O)O)NC(=O)[C@H](Cc1c[nH]c2ccccc12)NC(=O)[C@H](CCC(=O)O)NC(=O)[C@H](CCC(=O)O)NC(=O)[C@H](Cc1c[nH]c2ccccc12)NC(=O)[C@@H](NC(=O)[C@H](CCSC)NC(C)=O)[C@@H](C)O)[C@@H](C)CC)[C@@H](C)CC)[C@@H](C)CC)[C@@H](C)CC)[C@@H](C)CC)C(=O)N[C@@H](CCCCN)C(=O)N[C@@H](CCCCN)C(N)=O [AP3]	bound to N36	59 ± 6.1	68	11.6 ± 0.5	10.7 ± 1.2	3.1 ± 0.1
